This note sets out measurements from PubChem BioAssay AID624391 (National Center for Advancing Translational Sciences (NCATS), 2012).

Sequences of proteins named here, by UniProt entry; tags and fusion partners are left off.
UniProt P14618, whole entry, looked up: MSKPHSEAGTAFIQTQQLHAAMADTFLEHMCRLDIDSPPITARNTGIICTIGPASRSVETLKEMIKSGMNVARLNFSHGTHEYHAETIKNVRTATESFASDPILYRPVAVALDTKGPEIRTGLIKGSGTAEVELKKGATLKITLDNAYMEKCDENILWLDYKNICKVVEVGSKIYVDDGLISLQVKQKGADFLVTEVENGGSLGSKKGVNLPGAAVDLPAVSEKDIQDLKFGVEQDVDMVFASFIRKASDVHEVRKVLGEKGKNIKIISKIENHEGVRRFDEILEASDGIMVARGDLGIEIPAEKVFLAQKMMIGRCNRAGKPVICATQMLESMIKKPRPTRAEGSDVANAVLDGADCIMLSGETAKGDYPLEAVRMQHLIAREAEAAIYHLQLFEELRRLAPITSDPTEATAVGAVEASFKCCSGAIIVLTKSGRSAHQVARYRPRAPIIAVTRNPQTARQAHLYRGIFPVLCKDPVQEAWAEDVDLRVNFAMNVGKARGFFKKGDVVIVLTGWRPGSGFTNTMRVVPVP

The entries are a selection whose mix differs from that of the whole data set. The source made the active and inactive calls. Calls come from the whole dose curve; as a rule, active = well fitted curve in the direction sought with a large enough effect; inactive = no such curve, though single readings can be large or run the other way.

The target of the assay is Pyruvate kinase PKM (Homo sapiens) (UniProt P14618). Nature of the assay: qHTS for Activators of Human Muscle Isoform 2 Pyruvate Kinase: Extended Characterization for Probe 2. Particulars: purified hPK-M2, Kinase-Glo ATP luminescence, 1 h. Here is the method:
Human pyruvate kinase muscle 2 (hPK-M2) enzyme was supplied as a highly purified (>95% pure) preparation from Harvard Medical School and assayed for its ability to generate ATP from ADP using phosphoenolpyruvate (PEP) as a substrate. ATP generation was detected in a coupled reaction by luciferase-mediated luminescence, an ATP-dependent process. Pyruvate kinase substrates, PEP and ADP, were present in the assay at Km and approximately 10-fold below Km respectively. The enzyme was assayed at an intermediate level of activity to screen for both inhibitors and activators. NIH Chemical Genomics Center [NCGC] NIH Molecular Libraries Probe Centers Network [MLPCN] MLPCN Grant: MH085679 Assay Submitter (PI): Matthew G. Vander Heiden, Harvard Medical School
Three uL of substrate mix (at r.t.) in assay buffer (50 mM Imidazole pH7.2, 50 mM KCl, 7 mM MgCl2, 0.01% Tween 20, 0.05% BSA) was dispensed into white solid bottom 1,536 well microtiter plates so that the final concentrations of substrates in the assay were 0.1 mM ADP and 0.5 mM PEP. 23 nL of compound were delivered by a pin tool and 1 uL of enzyme mix (final concentration of 0.1 nM) in assay buffer (4 degree Celsius) was added. […] Two uL of detection mix (Kinase-Glo, Promega; at 4 degree Celsius protected from light) was added and luminescence read by a ViewLux (Perkin Elmer) at 1 second exposure/plate. […]
Take `Nc1cccc(S(=O)(=O)N2CCCN(S(=O)(=O)c3ccc4c(c3)OCCO4)CC2)c1`: the Potency was active: 130 nM.
